From article PMC5990611, “An in Vitro Assay of hERG K^+ Channel Potency for a New EGFR Inhibitor FHND004” (Frontiers in Pharmacology, 2018)
Values joined by “and” are separate entries in the source; they are usually repeats but may differ in a detail not shown here. Identical values can stand only once.

By UniProt entry, the sequences of proteins in these tests, tags left out.
UniProt O35219, whole entry: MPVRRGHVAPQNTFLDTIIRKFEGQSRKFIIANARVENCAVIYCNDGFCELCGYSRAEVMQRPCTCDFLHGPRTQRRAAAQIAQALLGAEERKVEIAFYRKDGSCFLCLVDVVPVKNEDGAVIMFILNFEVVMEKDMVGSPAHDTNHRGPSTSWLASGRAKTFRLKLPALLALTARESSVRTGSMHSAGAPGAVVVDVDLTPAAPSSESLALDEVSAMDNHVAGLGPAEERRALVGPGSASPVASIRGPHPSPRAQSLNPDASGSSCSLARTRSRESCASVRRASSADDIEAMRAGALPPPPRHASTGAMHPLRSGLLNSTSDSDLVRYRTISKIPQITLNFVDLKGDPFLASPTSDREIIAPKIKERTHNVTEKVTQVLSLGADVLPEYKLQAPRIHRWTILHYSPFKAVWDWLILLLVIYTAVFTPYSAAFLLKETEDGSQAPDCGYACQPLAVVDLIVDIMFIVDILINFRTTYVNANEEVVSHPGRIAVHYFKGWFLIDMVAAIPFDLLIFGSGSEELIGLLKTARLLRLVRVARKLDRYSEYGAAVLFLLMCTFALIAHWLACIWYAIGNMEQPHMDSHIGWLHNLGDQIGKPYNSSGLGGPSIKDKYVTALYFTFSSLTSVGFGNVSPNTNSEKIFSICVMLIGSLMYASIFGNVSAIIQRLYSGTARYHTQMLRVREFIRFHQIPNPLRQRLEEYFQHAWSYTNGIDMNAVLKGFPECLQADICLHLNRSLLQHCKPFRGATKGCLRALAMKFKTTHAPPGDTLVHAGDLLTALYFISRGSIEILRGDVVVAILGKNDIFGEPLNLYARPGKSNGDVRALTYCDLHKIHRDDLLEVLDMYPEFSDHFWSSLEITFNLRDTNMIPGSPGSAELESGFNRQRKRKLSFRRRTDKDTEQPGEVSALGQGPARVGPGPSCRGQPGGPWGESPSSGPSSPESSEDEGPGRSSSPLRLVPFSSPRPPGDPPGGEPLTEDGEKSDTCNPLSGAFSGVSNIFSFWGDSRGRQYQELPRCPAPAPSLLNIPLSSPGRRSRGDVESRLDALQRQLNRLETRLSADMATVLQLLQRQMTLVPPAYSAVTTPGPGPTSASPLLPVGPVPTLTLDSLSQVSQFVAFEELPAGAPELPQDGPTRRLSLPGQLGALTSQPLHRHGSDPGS

What was measured:
[1] = molecular target: hERG K+ channels (WT) (Homo sapiens, UniProt Q12809); test: Whole-cell patch clamp of IhERG in HEK293 cells expressing WT hERG; assay type: cell-based
[2] = molecular target: IKr in HL-1 cells (Mus musculus, UniProt O35219); test: Whole-cell patch clamp of IKr endogenously expressed in HL-1 cells
Procedure: The cardiac murine HL-1 cell line, a kind gift from William Claycomb (Louisiana State University, New Orleans), was grown in 0.02% fibronectin (Sigma, United States) precoated flasks and maintained in complete Claycomb medium (Sigma, United States) supplemented with 10% fetal bovine serum (FBS; Sigma, United States), 2 mmol/L L-glutamine (Invitrogen, United States), 100 mmol/L norepinephrine (Sigma, United States), 100 U/mL of penicillin (TransGen, China), and 100 μg/mL of streptomycin (TransGen, China) at 37°C in humidified 5% CO2 and 95% air.
Whole-cell patch clamp technique was employed to record IhERG at room temperature (22 ± 1°C) using an AXON 200B amplifier through a digitizer (DigiData 1440A, Molecular Devices, United States) controlled by pClamp (v10.0) software. Cells were superfused with bath solution containing (mmol/L): NaCl 140, KCl 5.4, MgCl2 1, HEPES 10, glucose 10, and CaCl2 1 (pH 7.4). The pipette solution contained (mmol/L): KCl 140, MgCl2 1, HEPES 10, K-ATP4, and EGTA 5 (pH 7.3). […] The “pipette-to-bath” liquid junction potential calculated with this filling solution was about -2.7 mV. […]
(§1) Specific voltage pulse protocols are described in Section “Results” and figure legends. The voltage dependence of current activation was determined by fitting the normalized tail current (Itail) vs. test potential (mV) to a Boltzmann function expressed by Itail/Imax = 1/(1+exp[(V1/2-Vm)/k], where V1/2 is the voltage at which the current is half-activated and k is the slope factor. The time constants (tau) for inactivation (τinactivation) and recovery from inactivation (τrecovery) were obtained by fitting a single-exponential equation: y = A1 × exp(-x/t1)+y0, respectively, where t1 represents the time constants. The time constants for deactivation (τdeactivation) were obtained by fitting a double-exponential equation: y = A1 × exp(-x/t1)+A2 × exp(-x/t2)+y0, where t1 represents the slow time constant (τslow) and t2 represents the fast time constant (τfast), respectively. […]

[3] = molecular target: WT/A422T-hERG (Homo sapiens, UniProt Q12809, A422T); test: Whole-cell patch clamp, HEK293 cells co-expressing WT/A422T-hERG; assay type: cell-based
Procedure: (§2) The cgi-EGFP-hERG, cgi-EGFP-A422T-hERG, and cgi-EGFP-H562P-hERG plasmids were kindly gifted by Dr. Nipavan Chiamvimonvat (University of California, Davis, CA, United States). Transfections were performed using Lipofectamine^TM 2000 according to manufacturer’s instructions (Invitrogen, United States). EGFP-positive cells were used for current recording at least 36 h after transfection.
(§3) Whole-cell patch clamp technique was employed to record IhERG at room temperature (22 ± 1°C) using an AXON 200B amplifier through a digitizer (DigiData 1440A, Molecular Devices, United States) controlled by pClamp (v10.0) software. Cells were superfused with bath solution containing (mmol/L): NaCl 140, KCl 5.4, MgCl2 1, HEPES 10, glucose 10, and CaCl2 1 (pH 7.4). The pipette solution contained (mmol/L): KCl 140, MgCl2 1, HEPES 10, K-ATP4, and EGTA 5 (pH 7.3). Borosilicate glass electrodes (World Precision Instruments Inc., United States) were pulled on a horizontal pipette puller (P-97, Sutter Instrument Co., United States) to resistances of 2–5 MΩ when filled with the pipette solution. The “pipette-to-bath” liquid junction potential calculated with this filling solution was about -2.7 mV. […]
as §1

[4] = molecular target: WT/H562P-hERG (Homo sapiens, UniProt Q12809, H562P); test: Whole-cell patch clamp, HEK293 cells co-expressing WT/H562P-hERG; assay type: cell-based
Procedure: as §2, §3, §1

[5] = molecular target: F656C-hERG (Homo sapiens, UniProt Q12809, F656C); test: Whole-cell patch clamp, F656C-hERG mutant, high [K+]e; assay type: cell-based
Procedure: (§4) Mutations of hERG channels (Y652A, F656C, S624A, and F557L) were constructed using the KFX-101 kit (Toyobo Co., Ltd., Japan) according to the manufacturer’s instructions. Each mutant was confirmed by sequencing and subsequently subcloned into the full-length cgi-EGFP vector. Plasmid vectors were then amplified in Escherichia coli DH5α and harvested for eukaryotic cell transfection as described above.
(§5) Whole-cell patch clamp technique was employed to record IhERG at room temperature (22 ± 1°C) using an AXON 200B amplifier through a digitizer (DigiData 1440A, Molecular Devices, United States) controlled by pClamp (v10.0) software. Cells were superfused with bath solution containing (mmol/L): NaCl 140, KCl 5.4, MgCl2 1, HEPES 10, glucose 10, and CaCl2 1 (pH 7.4). The pipette solution contained (mmol/L): KCl 140, MgCl2 1, HEPES 10, K-ATP4, and EGTA 5 (pH 7.3). Borosilicate glass electrodes (World Precision Instruments Inc., United States) were pulled on a horizontal pipette puller (P-97, Sutter Instrument Co., United States) to resistances of 2–5 MΩ when filled with the pipette solution. The “pipette-to-bath” liquid junction potential calculated with this filling solution was about -2.7 mV. Because this value was small, no correction of membrane potential was made. […]

[6] = molecular target: Y652A-hERG (Homo sapiens, UniProt Q12809, Y652A); test: Whole-cell patch clamp, Y652A-hERG mutant; assay type: cell-based
Procedure: as §4, §3, §1

[7] = molecular target: S624A-hERG (Homo sapiens, UniProt Q12809, S624A); test: Whole-cell patch clamp, S624A-hERG mutant; assay type: cell-based
Procedure: as §4, §5

[8] = molecular target: F557L-hERG (Homo sapiens, UniProt Q12809, F557L); test: Whole-cell patch clamp, F557L-hERG mutant; assay type: cell-based
Procedure: as §4, §3, §1

[9] = In vivo pharmacokinetic assay in male SD rats; set-up: species or system rat; conditions: read-out: maximum serum concentration (Cmax), data not shown

C=CC(=O)Nc1cc(Nc2nccc(-c3cn4c5c(cccc35)CCC4)n2)c(OC)cc1N(C)CCN(C)C
incomplete (maximal) hERG block [1]: about 85%
onset of inhibitory effect on tail currents after drug application ([1]; 10 μM): 1 min
time to steady-state response after drug application ([1]; 10 μM): 5 min
effect on deactivation time constants ([1]; 10 μM, P > 0.05): did not affect
effect on inactivation time constant ([1]; 10 μM, P > 0.05): not affected
effect on steady-state activation ([1]; 10 μM, P > 0.05): not affected
effect on steady-state inactivation ([1]; 10 μM, P > 0.05): not affected
time constant of pulse duration-dependent decay of relative tail current (onset of block) ([1]; 10 μM, envelope of tails protocol): 172.26 ± 9.67 ms
closed state block ([1]; 10 μM, step to +80 mV): minimal closed state block
fold less inhibitory effect on hERG channels than AZD9291 ([1]; HEK293 cells, IC50 ratio): about 15 fold
slope factor (k) of concentration-response fit ([1]; WT hERG, HEK293 cells): 3.50
slope factor (k) of concentration-response fit ([1]; WT hERG, high [K+]e (94 mM)): 3.00
tail current recovered by washing out ([1]; after 10 μM drug application): 88.40 ± 0.46%
half-activation voltage (V1/2) of steady-state activation ([1]; after 10 μM, control 9.86 ± 0.54 mV): 10.87 ± 1.46 mV and 10.87 mV
time constant of hERG channel activation ([1]; envelope of tails protocol, +30 mV, 10 μM, Ctrl 294.42 ± 13.22 ms): 261.48 ± 11.09 ms
margin between hERG IC50 and Cmax ([1]; hERG IC50 (HEK293) / rat Cmax): 38.5 fold
IC50 ([1]; read-out: IC50 for block of WT-hERG inward tail current, WT hERG, high [K+]e (94 mM) bath solution): 8.38 µM
fold greater IC50 than AZD9291 ([2]; HL-1 IC50 vs AZD9291): 13 fold
slope factor (k) of concentration-response fit ([2]; HL-1 cells, IKr tail current): 2.21 ± 0.67
IC50 ([2]; read-out: IC50 for block of IKr tail current, HL-1 cells): 7.52 µM
slope factor (k) of concentration-response fit ([3]; WT/A422T-hERG): 3.45
fold more potent inhibition vs WT hERG channels ([3]; WT/A422T-hERG vs WT): approximately 1.8 fold
IC50 ([3]; read-out: IC50 for block of WT/A422T-hERG tail current, HEK293 cells): 4.82 µM
slope factor (k) of concentration-response fit ([4]; WT/H562P-hERG): 2.55
fold more potent inhibition vs WT hERG channels ([4]; WT/H562P-hERG vs WT): 3 fold
IC50 ([4]; read-out: IC50 for block of WT/H562P-hERG tail current, HEK293 cells): 2.8 µM
slope factor (k) of concentration-response fit ([5]; F656C, high [K+]e (94 mM)): 3.61
IC50 ([5]; read-out: IC50 for block of F656C-hERG inward tail current, high [K+]e (94 mM) bath solution): 46.1 µM
slope factor (k) of concentration-response fit ([6]; Y652A): 3.00 ± 1.87
fold decrease in efficacy vs WT ([6]; Y652A, largest of the order Y652A > S624A > F656C > F557L): 7.9 fold
IC50 ([6]; read-out: IC50 for block of Y652A-hERG tail current): 66.5 µM
slope factor (k) of concentration-response fit ([7]; S624A): 2.86 ± 1.63
IC50 ([7]; read-out: IC50 for block of S624A-hERG tail current): 47.6 µM
slope factor (k) of concentration-response fit ([8]; F557L): 3.00 ± 1.39
fold decrease in efficacy vs WT ([8]; F557L, smallest of the order Y652A > S624A > F656C > F557L): 2.3 fold
IC50 ([8]; read-out: IC50 for block of F557L-hERG tail current): 19.7 µM
Cmax [9]: 220 nM
